Test results from patent US10562939B2, “Method for significantly increasing lentiviral production” (priority 2016, dated 2020).

Molecular target: T1, interaction between HO-2 and HIV-1 MA (Homo sapiens, UniProt P30519)
T1 sequence (P30519 1-316): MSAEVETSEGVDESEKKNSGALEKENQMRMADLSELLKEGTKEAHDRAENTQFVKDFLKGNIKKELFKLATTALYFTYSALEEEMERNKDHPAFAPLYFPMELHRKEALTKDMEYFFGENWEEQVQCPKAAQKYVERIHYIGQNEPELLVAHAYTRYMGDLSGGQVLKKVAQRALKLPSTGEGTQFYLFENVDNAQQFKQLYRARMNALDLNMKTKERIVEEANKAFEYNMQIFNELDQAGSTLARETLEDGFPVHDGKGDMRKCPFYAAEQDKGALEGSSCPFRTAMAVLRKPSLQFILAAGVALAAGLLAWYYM
Test: Co-immunoprecipitation of HO-2 with flag-tagged HIV-1 MA (Western blot)
Details: for interaction between HO-2 and HIV-1 MA: added to cell lysates, Myc-HO-2, FIGS. 1D, 8C

Structure (SMILES) | interaction between HO-2 and HIV-1 MA | interaction between HIV-1 MA and HO-2 (endogenous HO-2, increasing concentrations of SnPPIX, FIG. 4B)
CCCCCCCCCCCCCC(=O)O[C@@H]1[C@@H](C)[C@@]2(O)[C@@H](C=C(CO)C[C@]3(O)C(=O)C(C)=C[C@@H]23)[C@@H]2C(C)(C)[C@]12OC(C)=O [PMA, Phorbol 12-myristate 13-acetate] | decrease the interaction between HO-2 and HIV-1 MA in a dose-dependent manner | –
C=CC1=C(C)C2=Cc3c(C=C)c(C)c4[n]3[Sn]([Cl])([Cl])[n]3c(c(C)c(CCC(=O)O)c3=CC3=NC(=C4)C(C)=C3CCC(=O)O)=CC1=N2 [SnPPIX, tin protoporphyrin IX dichloride] | – | strongly inhibited the interaction between HIV-1 MA and HO-2 in a dose-dependent manner
CCCCCCCCCCCCCC(=O)O [myristic acid] | decrease the interaction between HO-2 and HIV-1 MA in a dose-dependent manner | –
